The values below come from patent publication US20200181210A1, “MODIFIED CYCLIC PEPTIDES AND THERAPEUTIC USE THEREOF” (THE BROAD INSTITUTE, INC., priority 2017, published 2020).

The data set deals with trypsin. Description: trypsin protease digestion resistance of cyclotides (SDS-PAGE). The settings on record: trypsin exposure up to 18 hrs (FIG. 28).

The structures appear in SMILES notation.

Take `CSCC[C@H](NC(=O)[C@H](CC(C)C)NC(=O)[C@H](Cc1c[nH]c2ccccc12)NC(=O)[C@H](CCC(N)=O)NC(=O)[C@@H](NC(=O)[C@H](Cc1ccccc1)NC(=O)[C@H](CC(=O)O)NC(=O)[C@H](CCC(N)=O)NC(=O)[C@H](C)NC(=O)[C@H](CCCN=C(N)N)NC(=O)[C@H](CCCN=C(N)N)NC(=O)[C@H](CO)NC(=O)[C@H](CC(=O)O)NC(=O)[C@H](CC(C)C)NC(=O)[C@H](Cc1ccc(O)cc1)NC(=O)[C@H](CCCCN)NC(=O)[C@H](CO)NC(=O)[C@H](Cc1ccc(O)cc1)NC(=O)[C@H](CC(=O)O)NC(=O)[C@H](CO)NC(=O)[C@@H](NC(=O)[C@H](Cc1ccccc1)NC(=O)[C@@H](NC(=O)CNC(=O)[C@H](CCC(N)=O)NC(=O)[C@H](CO)NC(=O)[C@@H](N)Cc1c[nH]cn1)[C@@H](C)O)[C@@H](C)O)C(C)C)C(=O)N[C@@H](CC(N)=O)C(=O)N[C@H](C(=O)O)[C@@H](C)O` [linear glucagon peptide, Glucagon]: the resistance towards trypsin result was “degraded”.
